Test results published in US11013692B2, “Method of drug formulation based on increasing the affinity of crystalline microparticle surfaces for active agents” (MannKind Corporation, priority 2005, dated 2021).

How the values were obtained:
[1] = Solubility of FDKP as a function of pH; assay type: physicochemical
[2] = Resuspension of dried active agent-coated FDKP microparticles in acid solution or water (filtration, HPLC); assay type: physicochemical
Protocol: The solvent was filtered from these suspensions and the retained particles were dissolved and collected. The amount of active agent in all of these samples was quantitated by HPLC.
For each of the lots, the active agent was released from the particles in the acidic solution. Therefore, by protonating the surfaces of the microcrystals, the active agent desorbs from the crystal surfaces.

[3] = for Filtrate (unbound protein) concentration: initial conc. 200 μg/mL; for Dissolved Particles protein concentration: material trapped on filter dissolved

## (E)-3,6-bis[4-(N-carboxy-2-propenyl)amidobutyl]-2,5-diketopiperazine [FDKP]
[1]; around pH 5.0
  solubility: about 1 mg/mL
[1]; below pH 3.5
  solubility in water: essentially insoluble

## growth hormone
[2]; filtrate, final pH about 2.0, 215 nm
  Resuspended in Acidic solution, integrated HPLC peak area: 240 mAU * sec
[2]; filtrate, final pH about 4.5, 215 nm
  Resuspended in water, integrated HPLC peak area: 0 mAU * sec
[2]; retained particles dissolved, final pH about 2.0, 215 nm
  Redissolved after filtering away acidic solution, integrated HPLC peak area: 0 mAU * sec
[2]; retained particles dissolved, final pH about 4.5, 215 nm
  Redissolved after filtering away water, integrated HPLC peak area: 191 mAU * sec
[2]; standard solution, 215 nm
  Active Agent Standard solution, integrated HPLC peak area: 250 mAU * sec
[3]; pH 2.0, no particles (particle-free control)
  Filtrate (unbound protein) concentration: 181 µg/mL
[3]; pH 2.0, no particles
  Dissolved Particles protein concentration: 0 µg/mL
[3]; pH 2.0, with particles (5 mg/mL FDKP)
  Filtrate (unbound protein) concentration: 146 µg/mL
[3]; pH 2.0, with particles
  Dissolved Particles protein concentration: 0 µg/mL
[3]; pH 4.5, no particles (particle-free control)
  Filtrate (unbound protein) concentration: 145 µg/mL
[3]; pH 4.5, no particles
  Dissolved Particles protein concentration: 0 µg/mL
[3]; pH 4.5, with particles (5 mg/mL FDKP)
  Filtrate (unbound protein) concentration: 0 µg/mL
[3]; pH 4.5, with particles
  Dissolved Particles protein concentration: 180 µg/mL

Like-named read-outs stand apart in the source and are kept apart here.
